Assay results: PubChem BioAssay AID1875 (Broad Institute, 2009)
Only a part is listed here, and it is no random draw. Some results for these compounds are left out of this collection, so the calls shown say nothing about other tests. Activity calls are given as the source filed them.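 How the source made its calls: active means lowest replicate activity score at least 50, where 100 means six control SD above control mean; inconclusive means lowest score under 50 but half or more replicates reach 50; inactive means the rest.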

Test: perturbers of mRNA poly(A) processing – luminescence, S. cerevisiae, primary screen (AID 1875);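 further: yeast exposed to compound for 9 h at 30 °C; higher score means more reporter readthrough which indicates perturbed polyadenylation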
Settings: S. cerevisiae SKY197-pL101 polyadenylation reporter, beta-gal luminescence; at 12 µM; stronger effect = higher value; efflux-impaired pdr1/pdr3 knockout yeast; score 100 = 6 SD above DMSO

| Structure (SMILES) | activity score |
| --- | --- |
| O=C(NCC1(N2CCCCC2)CCCCC1)c1cccc(Cl)c1 | inactive: 4.14% |
| COc1ccc(Cl)cc1C(=O)NCC1(N(C)C)CCCCC1 | inactive: -6.19% |
| COc1cccc(C(=O)NCC2(N3CCCCC3)CCCCC2)c1 | inactive: 2.52% |
| COc1cc(C(=O)NCC2(N(C)C)CCCCC2)c([N+](=O)[O-])cc1OC | inactive: -17.9% |
| CN(C)C1(CNC(=O)c2ccc(Br)cc2)CCCCC1 | inactive: -2.83% |
| CC(C)Oc1ccc(C(=O)NCC2(N(C)C)CCCCC2)cc1 | inactive: 6.27% |
| CN(C)c1cccc(C(=O)NCC2(N(C)C)CCCCC2)c1 | inactive: 2.98% |
| COc1ccc(Br)c(C(=O)NCC2(N3CCCCC3)CCCCC2)c1 | inactive: 11.1% |
| O=C(OC1CN2CCC1CC2)C(CO)(c1ccccc1)c1ccccc1 (centres undefined) | inactive: -20.7% |
| Cc1ccc(C(=O)NCC2(N3CCCCC3)CCCCC2)cc1 | inactive: -4.56% |
| COc1cc(SC)ccc1C(=O)NCC1(N(C)C)CCCCC1 | inactive: 3.35% |
| CCN(CC)CC(C)C(C)OC(=O)C(O)(c1ccccc1)c1ccccc1 (centres undefined) | inactive: -7.24% |
| CC(C)N1C(=O)CC2(CCN(CCOC(=O)C(O)(c3ccccc3)c3ccccc3)CC2)C1=O | inactive: 10% |
| CN1[C@@H]2CC[C@H]1CC(OC(=O)C(O)(c1ccccc1)c1ccccc1)C2 (some centres undefined) | inactive: 1.28% |
| O=C(NCC1(N2CCCCC2)CCCCC1)c1cc([N+](=O)[O-])ccc1Cl | inactive: 4.33% |
| COc1ccc(C(=O)NCC2(N(C)C)CCCCC2)cc1 | inactive: 12.5% |
| O=C(NCC1(N2CCCCC2)CCCCC1)c1cccc(Br)c1 | inactive: -4.22% |
| Cc1cc(C(=O)NCC2(N3CCCCC3)CCCCC2)ccc1[N+](=O)[O-] | inactive: -4.67% |
| CCN1CCCC(OC(=O)C2(O)c3ccccc3C=Cc3ccccc32)C1 (centres undefined) | inactive: 4.6% |
| O=C(NCC1(N2CCCCC2)CCCCC1)c1cc(F)c(F)cc1Cl | inactive: 7.24% |
| C=CCN1CCN(CCOC(=O)C(O)(c2ccccc2)c2ccccc2)CC1 | inactive: 4.82% |
| CN(C)C1CCCC1OC(=O)C(O)(c1ccccc1)c1ccccc1 (centres undefined) | inactive: 8.63% |
| CN(C)c1ccc(C(=O)NCC2(N(C)C)CCCCC2)cc1 | inactive: -16% |
| Cc1ccccc1C(=O)NCC1(N2CCCCC2)CCCCC1 | inactive: 14.2% |
